MITF TRPM1 inh: inhibitors of MITF-dependent TRPM1 promoter reporter, primary screen, cell-based, SK-MEL-5, single point, luciferase; SK-MEL-5 TRPM1 promoter luciferase, 24 h; inhibition, % at 12.5 µM; 0.83% of 330,000 active; AID 488899, 2010;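 active = mean inhibition across replicates of 60% or more, whatever share of single replicates reaches that level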
UUG fidelity: modulators of start codon recognition fidelity in yeast; S. cerevisiae UUG-firefly luciferase reporter, luminescence/redox ratio; AID 602363; 350,000 tested, 0.13% active; activity score, % at 18.7 µM;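 active = replicate mean at a twofold rise or more, about +100% in these data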;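 also: firefly luciferase made from a UUG start codon reports start codon fidelity; reporter light over untreated wells divided by growth signal over untreated wells; some hits fall short of that in this replicate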
Wnt bcat act: Wnt/beta-catenin pathway activators, primary screen, cell-based, plate reader, single point; 1.2% of 300,000 active; Wnt/beta-catenin reporter cell assay, activator; activation, % at 9.35 µM; in the data active = activation above about 30%, passing the limit was not always enough;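 also: 0% = neutral control wells and 100% = positive control wells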
PGC1a acetyl inh: inhibitors of PGC1a acetylation signal, primary screen, cell-based, U2OS, AlphaScreen, inhibitor mode; AlphaScreen anti-acetyl-lysine; with virally co-expressed GCN5 acetyltransferase; inhibition, % at 15.6 µM; 0.17% of 350,000 active;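 active = every replicate shows inhibition of at least 40%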;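 also: 0% = neutral control wells and 100% = positive control wells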
MITF act: activators of MITF-driven TRPM1 promoter reporter, primary screen, cell-based, SK-MEL-5, luciferase, single point. SK-MEL-5 TRPM1-promoter luciferase, 24 h; % of positive control, neutral wells = 0. activation, % at 12.5 µM. 0.75% of 300,000 active;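 active = mean activation of at least 80% with every replicate also reaching 80%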;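 also: 0% = neutral control wells and 100% = parthenolide positive control wells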
miR122 inh: miR-122 Renilla sensor signal increase in Huh7, primary screen, miR-122 inhibitor project, cell-based, single point, plate reader; AID 602342, 2012; activation (reporter increase), % at 12.5 µM; 0.3% of 340,000 active; Huh7 miR-122 Renilla luciferase sensor, 48 h; neutral wells = 0, positive control = 100;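 active = mean replicate activation score at least 90 and every replicate individually at or above 90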;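 also: higher luciferase means less miR-122 activity so hits act as miR-122 inhibitors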
* = called active by the depositor; nt = not tested or not shown; [ ] = dose if it differs, or a comment. Hits are enriched below; roughly 2.1% of the tested compounds scored in any of these assays.

[1] COc1ccccc1NS(=O)(=O)c1cc(C)ccc1C
[2] C[C@H](CO)N1C[C@H](C)[C@@H](CN(C)C(=O)Nc2ccc(F)cc2)Oc2ccc(NC(=O)Cc3ccccc3)cc2C1=O
[3] O=C(Nc1ccc2c(c1)OCO2)c1ccc(=O)[nH]n1
[4] COc1ccc(NS(=O)(=O)c2cc(NC(=O)c3ccc(=O)[nH]n3)ccc2C)cc1
[5] Cc1ccc(C)c(S(=O)(=O)Nc2ccc3sc(C)nc3c2)c1
[6] COc1cc(C)c(S(=O)(=O)Nc2ccccc2F)cc1C

| assay / compound | 1 | 2 | 3 | 4 | 5 | 6 |
| --- | --- | --- | --- | --- | --- | --- |
| MITF TRPM1 inh | -3.7 | nt | -11.8 | 19.8 | 10.6 | 18.6 |
| UUG fidelity | -17.5 | 3.0 | -18.7 | -25.8 | 9.9 | -7.2 |
| Wnt bcat act | -0.4 | nt | -1.5 | 0.0 | nt | nt |
| PGC1a acetyl inh | -19.3 | -7.0 | 10.8 | -12.8 | -0.6 | -11.2 |
| MITF act | 3.8 | nt | 12.8 | -19.0 | -6.4 | -17.0 |
| miR122 inh | 140.6* | 6.3[16.7 µM] | 4.2 | 166.1* | 427.9* | 123.5* |

[7] CC(C)(C)c1ccc(NC(=O)c2ccc(=O)[nH]n2)cc1
[8] O=C(C[C@H]1C=C[C@@H](NS(=O)(=O)c2ccc(F)cc2)[C@H](CO)O1)NCc1ccccc1F
[9] CC(C)NC(=O)NCC[C@@H]1CC[C@@H](NS(=O)(=O)c2ccc(Oc3ccccc3)cc2)[C@@H](CO)O1
[10] C[C@@H]1CN([C@@H](C)CO)C(=O)c2cc(-c3cccnc3)cnc2O[C@H]1CN(C)C(=O)C1CCOCC1
[11] COc1ccc(CN(C)C[C@@H]2OCCCC[C@@H](C)Oc3ccc(NS(=O)(=O)c4c(C)noc4C)cc3C(=O)N([C@H](C)CO)C[C@H]2C)cc1
[12] CCNS(=O)(=O)c1ccc(NS(=O)(=O)c2cc(C)ccc2C)cc1

| assay / compound | 7 | 8 | 9 | 10 | 11 | 12 |
| --- | --- | --- | --- | --- | --- | --- |
| MITF TRPM1 inh | -96.4 | nt | nt | nt | nt | 9.1 |
| UUG fidelity | -25.9 | nt | nt | 14.2 | 7.8 | -11.7 |
| Wnt bcat act | 32.7* | nt | nt | nt | nt | -0.6 |
| PGC1a acetyl inh | 1.2 | 0.5 | -7.3 | 7.0 | -1.5 | -0.6 |
| MITF act | 97.4* | nt | nt | nt | nt | -8.9 |
| miR122 inh | 3.7 | nt | nt | 2.9[16.7 µM] | -0.6[16.7 µM] | 113.5* |

[13] Cn1cc(S(=O)(=O)Nc2ccc(Oc3ccccc3)cc2)c(=O)n(C)c1=O
[14] COc1ccc(NS(=O)(=O)c2cn(C)c(=O)n(C)c2=O)cc1
[15] Cc1ccc(C)c(S(=O)(=O)Nc2ccc(S(=O)(=O)Nc3ncccn3)cc2)c1
[16] CCC(=O)Nc1ccc2c(c1)C(=O)N(C)C[C@H](OC)[C@H](C)CN(C(=O)CC1CC1)[C@H](C)CO2
[17] CCOC(=O)C(C)On1c(-c2cccc(Cl)c2)nc2ccc([N+](=O)[O-])cc21 (stereo unspecified)
[18] CCOC(=O)COn1c(-c2cccc(Cl)c2)nc2ccc([N+](=O)[O-])cc21

| assay / compound | 13 | 14 | 15 | 16 | 17 | 18 |
| --- | --- | --- | --- | --- | --- | --- |
| MITF TRPM1 inh | 9.1 | 1.8 | -1.6 | nt | -23.6 | -83.2 |
| UUG fidelity | -15.4 | -13.8 | -5.7 | -7.8 | -9.7 | nt |
| Wnt bcat act | 1.1 | 41.9* | -2.0 | nt | nt | nt |
| PGC1a acetyl inh | 7.5 | 3.5 | 26.3 | -11.1 | -2.2 | -3.5 |
| MITF act | -2.7 | -7.8 | 4.7 | nt | 24.9 | 86.8* |
| miR122 inh | -7.9 | -12.1 | -13.7 | -0.6[16.7 µM] | 0.9 | -5.6 |

[19] O=S(=O)(Nc1nc2ccccc2nc1N1CCc2ccccc2C1)c1ccc(Cl)cc1
[20] C[C@@H]1CN([C@H](C)CO)S(=O)(=O)c2ccc(C#Cc3cccnc3)cc2O[C@H]1CN(C)C(=O)CN(C)C
[21] CC1(C)CC(=O)c2cnc(NC3CC3)nc2C1
[22] Cc1ccc(Nc2ncc3c(n2)CC(C)(C)CC3=O)cc1
[23] COc1ccc(NC(=O)N(C)C[C@H]2Oc3ccc(NC(=O)CCC(F)(F)F)cc3C(=O)N([C@@H](C)CO)C[C@@H]2C)cc1
[24] C[C@H](CO)N1C[C@H](C)[C@H](CN(C)CC2CC2)OCCCC[C@H](C)Oc2ccc(NC(=O)Nc3ccc4c(c3)OCO4)cc2C1=O
[25] O=C(Nc1cccc(-c2nc3ccccc3[nH]2)c1)c1cccc(NC(=O)c2ccco2)c1
[26] O=C(Nc1ccc2nc(-c3ccccc3)[nH]c2c1)c1ccco1
[27] O=C(Nc1ccc2nc(-c3ccc(Br)o3)[nH]c2c1)c1ccco1

| assay / compound | 19 | 20 | 21 | 22 | 23 | 24 | 25 | 26 | 27 |
| --- | --- | --- | --- | --- | --- | --- | --- | --- | --- |
| MITF TRPM1 inh | -7.1 | nt | -8.3 | -92.2 | nt | nt | 87.4* | -76.4 | -37.6 |
| UUG fidelity | -37.1 | 10.2 | nt | nt | 8.6 | nt | -12.4 | -21.7 | -14.9 |
| Wnt bcat act | 41.3* | nt | -3.6 | -0.9 | nt | nt | nt | 53.5* | nt |
| PGC1a acetyl inh | nt | 6.2 | 1.6 | -14.9 | -4.4 | 0.4 | -16.2 | -6.3 | -33.0 |
| MITF act | 5.9 | nt | 13.6 | 91.5* | nt | nt | -86.9 | nt | 37.6 |
| miR122 inh | 43.2 | -4.1[16.7 µM] | 0.7 | nt | 3.1[16.7 µM] | -8.8[16.7 µM] | 0.3 | 1.9 | 3.8 |

Three compounds already listed, arranged by count of non-hydrogen atoms, falling.
[23] COc1ccc(NC(=O)N(C)C[C@H]2Oc3ccc(NC(=O)CCC(F)(F)F)cc3C(=O)N([C@@H](C)CO)C[C@@H]2C)cc1
[25] O=C(Nc1cccc(-c2nc3ccccc3[nH]2)c1)c1cccc(NC(=O)c2ccco2)c1
[26] O=C(Nc1ccc2nc(-c3ccccc3)[nH]c2c1)c1ccco1

| assay / compound | 23 | 25 | 26 |
| --- | --- | --- | --- |
| MITF TRPM1 inh | nt | 87.4* | -76.4 |
| UUG fidelity | 8.6 | -12.4 | -21.7 |
| Wnt bcat act | nt | nt | 53.5* |
| PGC1a acetyl inh | -4.4 | -16.2 | -6.3 |
| MITF act | nt | -86.9 | nt |
| miR122 inh | 3.1[16.7 µM] | 0.3 | 1.9 |

Bioassay records deposited in PubChem BioAssay by Broad Institute.
